Source: PubChem BioAssay (Tox21)
Only a part is listed here, and it is no random draw. Inconclusive results are not listed. A structure can be active in one record and inactive in another. Activity calls are given as the source filed them. Unless noted, calls come from the whole dose curve.

By UniProt entry, the sequences of proteins in these tests, tags left out.
UniProt P30968, whole entry: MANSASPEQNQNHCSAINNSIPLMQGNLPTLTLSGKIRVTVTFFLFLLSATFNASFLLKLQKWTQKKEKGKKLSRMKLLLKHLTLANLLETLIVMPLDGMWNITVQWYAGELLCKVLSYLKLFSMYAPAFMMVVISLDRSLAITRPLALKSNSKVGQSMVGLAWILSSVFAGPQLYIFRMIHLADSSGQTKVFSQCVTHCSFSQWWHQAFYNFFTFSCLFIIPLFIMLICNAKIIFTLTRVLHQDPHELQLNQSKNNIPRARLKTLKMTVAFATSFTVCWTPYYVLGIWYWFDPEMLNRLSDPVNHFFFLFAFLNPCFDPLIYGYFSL
UniProt Q969F8, whole entry: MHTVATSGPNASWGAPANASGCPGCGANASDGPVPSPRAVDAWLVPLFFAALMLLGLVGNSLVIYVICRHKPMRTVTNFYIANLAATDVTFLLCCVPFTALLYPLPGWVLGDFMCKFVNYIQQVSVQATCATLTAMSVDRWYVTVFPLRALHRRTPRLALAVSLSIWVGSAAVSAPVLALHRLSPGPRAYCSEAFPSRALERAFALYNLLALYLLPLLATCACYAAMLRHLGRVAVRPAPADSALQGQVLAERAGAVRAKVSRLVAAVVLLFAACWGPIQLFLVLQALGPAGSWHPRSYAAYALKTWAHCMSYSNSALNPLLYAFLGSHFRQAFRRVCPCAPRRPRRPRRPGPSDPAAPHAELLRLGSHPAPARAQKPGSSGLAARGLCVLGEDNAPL
UniProt P28223, whole entry: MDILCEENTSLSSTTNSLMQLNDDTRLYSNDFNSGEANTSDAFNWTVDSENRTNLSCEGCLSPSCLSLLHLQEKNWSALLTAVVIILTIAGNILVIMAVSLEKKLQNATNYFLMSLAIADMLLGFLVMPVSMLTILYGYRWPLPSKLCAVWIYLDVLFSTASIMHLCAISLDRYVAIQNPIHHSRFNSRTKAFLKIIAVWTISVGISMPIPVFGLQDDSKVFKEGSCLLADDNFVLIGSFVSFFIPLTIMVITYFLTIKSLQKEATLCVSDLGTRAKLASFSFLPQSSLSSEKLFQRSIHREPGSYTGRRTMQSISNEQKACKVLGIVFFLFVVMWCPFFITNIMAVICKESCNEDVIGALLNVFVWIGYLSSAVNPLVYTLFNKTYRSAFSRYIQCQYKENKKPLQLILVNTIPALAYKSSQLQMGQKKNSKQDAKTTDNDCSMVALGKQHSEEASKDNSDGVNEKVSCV
UniProt P07550, whole entry: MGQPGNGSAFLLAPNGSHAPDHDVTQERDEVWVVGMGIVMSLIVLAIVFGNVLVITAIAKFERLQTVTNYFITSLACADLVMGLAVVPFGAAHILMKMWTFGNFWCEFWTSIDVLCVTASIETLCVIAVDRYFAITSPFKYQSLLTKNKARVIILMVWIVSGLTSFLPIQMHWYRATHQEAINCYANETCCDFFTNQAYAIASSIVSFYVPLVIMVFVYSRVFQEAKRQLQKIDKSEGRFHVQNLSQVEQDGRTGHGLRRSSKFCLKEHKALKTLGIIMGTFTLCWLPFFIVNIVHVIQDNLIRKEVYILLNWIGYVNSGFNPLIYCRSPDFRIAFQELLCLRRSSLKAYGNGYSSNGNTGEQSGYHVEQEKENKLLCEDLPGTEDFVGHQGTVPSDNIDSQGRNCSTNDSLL
UniProt P14416, whole entry: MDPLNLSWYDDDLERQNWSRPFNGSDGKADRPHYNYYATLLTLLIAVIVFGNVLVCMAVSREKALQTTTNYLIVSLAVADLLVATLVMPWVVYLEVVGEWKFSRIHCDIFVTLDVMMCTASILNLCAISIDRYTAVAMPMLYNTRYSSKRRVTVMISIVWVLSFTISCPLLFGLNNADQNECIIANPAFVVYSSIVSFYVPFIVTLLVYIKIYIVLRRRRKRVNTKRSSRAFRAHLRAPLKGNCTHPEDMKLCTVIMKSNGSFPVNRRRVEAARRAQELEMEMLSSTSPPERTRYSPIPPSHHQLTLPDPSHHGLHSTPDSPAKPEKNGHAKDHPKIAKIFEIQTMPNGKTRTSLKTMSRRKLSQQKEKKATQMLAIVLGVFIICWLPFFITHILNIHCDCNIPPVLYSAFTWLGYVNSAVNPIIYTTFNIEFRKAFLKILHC

Legend:
[1] = Nuclear factor erythroid 2-related factor 2/antioxidant responsive element (Nrf2/ARE) small molecule agonists: qHTS cell viability counter screen in human keratinocytes (AID 1919968; active = well fitted curve in the direction sought with a large enough effect in the repeat runs; an effect the other way counts as inactive or inconclusive; note: nearly all actives have a fitted effect of over 55% in size); settings: KeratinoSens HaCaT ARE cells viability, CellTiter-Fluor, 24 h; at 92.4 µM (top of the series)
Outline: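 Measured as CellTiter-Fluor fluorescence, this readout tracks cytotoxicity in the same wells as the ARE-luciferase screen. HaCaT reporter cells (1,500/well) received compounds after a 5 h pre-incubation and were exposed for 23 h.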

[2] = Nuclear factor erythroid 2-related factor 2/antioxidant responsive element (Nrf2/ARE) small molecule agonists: luciferase reporter gene qHTS assay in human keratinocytes (AID 1919969); settings: KeratinoSens HaCaT ARE-luciferase, luminescence, 24 h; at 92.4 µM (top of the series); note: nearly all actives have a fitted effect of over 35% in size
[3] = target: Gonadotropin-releasing hormone receptor (Homo sapiens) (UniProt P30968); experiment: Human gonadotropin-releasing hormone receptor (GnRHR) small molecule agonists, calcium flux assay in GnRHR-HEK293 cells (AID 1920063); settings: calcium flux fluorescence, agonist mode, stronger effect = higher value; note: nearly all actives have a fitted effect of over 35% in size
Outline: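 Fluorescence kinetics (480 nm excitation, 540 nm emission; 3 min, 1 s steps) report calcium mobilisation in human GnRHR-HEK293 cells in agonist mode. Dye incubation: 1 h, 37 C.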

[4] = target: KiSS-1 receptor (Homo sapiens) (UniProt Q969F8); experiment: Human kisspeptin (KISS1R) small molecule agonists, calcium flux assay in KISS1R-HEK293 cells (AID 1920064; active = well fitted curve in the direction sought with a large enough effect in the repeat runs; an effect the other way counts as inactive or inconclusive); settings: KISS1R-HEK293, calcium flux fluorescence, agonist
Outline: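 Measures KISS1R agonism through calcium-sensitive dye fluorescence in stably transfected HEK293 cells, read for 3 min after pin-tool compound delivery; 15-point titrations in triplicate.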

[5] = G protein-coupled receptor (GPCR) small molecule agonists, calcium flux assay: HEK293 wild type cell line counter screen (AID 1920065); settings: HEK293 WT calcium flux, fluorescence, agonist mode
Outline: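 Readout: fluorescence at 480 nm excitation/540 nm emission, sampled at 1 s intervals for 3 min. Cells had been cultured 18 h, then dye-loaded 1 h at 37 C before compound or ATP addition.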

[6] = p53 small molecule agonists, cell-based qHTS assay with human liver microsomes (AID 1963577); settings: HCT-116 p53RE-bla with human liver microsomes, ratio, 16 h;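 note: p53 response element beta-lactamase reporter cells with liver microsomes plus NADPH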
Outline: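 HLM-supplemented p53RE-bla reporter assay: 16 h compound exposure at 37 C, microsomes and NADPH each 0.5 mg/mL final, read by fluorescence intensity.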

[7] = p53 small molecule agonists, cell-based qHTS assay with rat liver microsomes (AID 1963578); settings: HCT-116 p53RE-bla, beta-lactamase ratio, 16 h
Outline: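 Quantitative HTS of the Tox21 10K library: p53RE-bla cells, rat liver microsomes plus NADPH at 0.5 mg/mL final each, 16 h at 37 C, beta-lactamase fluorescence detection.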

[8] = p53 small molecule agonists, cell-based qHTS assay with human liver microsomes: qHTS cell viability counter screen (AID 1963579); settings: p53RE-bla HCT-116 viability, ATP luminescence, 16 h, HLM; note: nearly all actives have a fitted effect of over 45% in size
Outline: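 Viability of p53RE-bla cells is measured as CellTiter-Glo luminescence following a 16 h, 37 C incubation with compound, liver microsomes from human donors and NADPH.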

[9] = p53 small molecule agonists, cell-based qHTS assay with rat liver microsomes: qHTS cell viability counter screen (AID 1963580); settings: p53RE-bla HCT-116 + rat microsomes, ATP viability, 16 h; at 66 µM (top of the series) unless noted; note: nearly all actives have a fitted effect of over 45% in size
Outline: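 Intracellular ATP, by CellTiter-Glo luminescence, defines viability. HCT-116 p53RE-bla cells, 4,000 per well, were compound-treated in the presence of rat liver microsomes and NADPH for 16 h at 37 C.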

[10] = p53 small molecule agonists, cell-based qHTS assay: qHTS cell viability counter screen (AID 1963581); settings: p53RE-bla HCT-116 viability, ATP luminescence, 16 h; note: nearly all actives have a fitted effect of over 45% in size
Outline: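 In the same plates used for the p53 bla reporter, HCT-116 cells given compounds for 16 h at 37 C received CellTiter-Glo; luminescence was recorded 30 min later at room temperature.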

[11] = target: 5-hydroxytryptamine receptor 2A (Homo sapiens) (UniProt P28223); experiment: 5-hydroxytryptamine receptor 2A (HTR2A) small molecule antagonists, cell-based qHTS assay (AID 1963586); settings: HTR2A-CHO cells, DOI-induced calcium flux, fluorescence; note: nearly all actives have a fitted effect of over 45% in size
Outline: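 Antagonist-mode intracellular calcium assay: DOI (4 nM) added after 5 min compound pre-incubation at room temperature to dye-loaded HTR2A-CHO cells. Fluorescence followed for 3 min, sampled every second.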

[12] = target: 5-hydroxytryptamine receptor 2A (Homo sapiens) (UniProt P28223); experiment: 5-hydroxytryptamine receptor 2A (HTR2A) small molecule agonists, cell-based qHTS assay (AID 1963587); settings: HTR2A-CHO cells, calcium flux fluorescence, agonist mode; note: nearly all actives have a fitted effect of over 30% in size
Outline: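 Kinetic calcium-flux fluorescence (2 min, 1 sec intervals) after compound addition in agonist mode. HTR2A-CHO cells were cultured 18 h, then dye-loaded 1 h at 37 C.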

[13] = target: Beta-2 adrenergic receptor (Homo sapiens) (UniProt P07550); experiment: Adrenergic beta2 receptor (ADRB2) small molecule antagonists, cell-based qHTS assay (AID 1963592); settings: CHO-ADRB2 cells, isoproterenol-stimulated cAMP HTRF ratio, 0.5 h; note: nearly all actives have a fitted effect of over 50% in size
Outline: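 Cells (CHO, stable ADRB2 overexpression) incubated 18-20hr at 37C; compounds added from DMSO; agonist mix (1nM isoproterenol, 100uM IBMX, 25uM Ro-20-1724) added; 0.5hr RT; d2-cAMP and anti-cAMP-cryptate added; 1hr RT; 665/615 nm read.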

[14] = target: Beta-2 adrenergic receptor (Homo sapiens) (UniProt P07550); experiment: Adrenergic beta2 receptor (ADRB2) small molecule agonists, cell-based qHTS assay (AID 1963593); settings: CHO-ADRB2 cells, cAMP HTRF, 30 min; at 92.4 µM (top of the series);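 note: CHO cells stably overexpressing human ADRB2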
Outline: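 CHO cells stably over-expressing ADRB2 were plated overnight at 37C, then dosed with compounds plus a stimulation mix containing 100uM IBMX and 25uM Ro-20-1724 for 0.5hr at room temperature. cAMP was measured by HTRF competition, 1hr.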

[15] = target: D(2) dopamine receptor (Homo sapiens) (UniProt P14416); experiment: Dopamine D2 receptor (DRD2) small molecule agonists, cell-based qHTS assay (AID 1963594); settings: HEK293-DRD2 cAMP HTRF, agonist mode, 30 min; note: nearly all actives have a fitted effect of over 35% in size
Outline: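 cAMP accumulation in DRD2-HEK293 cells measured by HTRF after 1 h detection; compounds added 10 min before NKH477 (200nM […]) forskolin-analogue stimulation, 30 min at room temperature, with Ro20-1724 present at 0.1 mM final.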

[16] = target: D(2) dopamine receptor (Homo sapiens) (UniProt P14416); experiment: Dopamine D2 receptor (DRD2) small molecule antagonists, cell-based qHTS assay (AID 1963595; active = well fitted inhibition curve with a large enough effect in the signal ratio in the repeat runs, with a control signal flat; the % refers to the signal ratio); settings: HEK293-DRD2 cAMP HTRF antagonist mode
Outline: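 HTRF cAMP read-out at 665 and 620 nm emission (340 nm excitation). Antagonist mode: compounds were tested against 12 nM quinpirole in DRD2-HEK293 cells, with 200 nM NKH477 raising cAMP and 0.1 mM Ro20-1724 blocking its breakdown.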

[17] = p53 small molecule agonists, cell-based qHTS assay (AID 1963582; active = well fitted activation curve with a large enough effect in the signal ratio in the repeat runs, not every such curve was filed as active; the % refers to the signal ratio; note: potency is the fitted concentration of half-maximal effect)
Outline: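 Compounds are pin-transferred in DMSO onto p53RE-bla cells and incubated 16 h at 37 C. The B/G FRET beta-lactamase substrate is then applied for 2 h at RT and fluorescence recorded.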

[18] = cAMP Responsive Elements (CRE) small molecule agonists, cell-based qHTS assay (AID 1963590); settings: CRE-bla HEK293T, beta-lactamase FRET ratio, 3 h
Outline: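 Cell line: CRE-bla HEK 293T; medium DMEM/10% dialyzed FBS/0.1 mM NEAA/1 mM pyruvate/25 mM HEPES; 3 h compound exposure; beta-lactamase FRET readout after 2 h substrate loading at RT.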

[19] = cAMP Responsive Elements (CRE) small molecule antagonists, cell-based qHTS assay (AID 1963591; active = well fitted inhibition curve with a large enough effect in the signal ratio in the repeat runs, not every such curve was filed as active; the % refers to the signal ratio); settings: CRE-bla HEK293T, beta-lactamase FRET ratio; at 92.4 µM (top of the series)
Outline: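 Inhibition of NKH477-driven (0.25 uM final) CRE-beta-lactamase signal in HEK293T cells, 3 h compound exposure at 37 °C, detected by FRET substrate fluorescence.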
% is set by controls: 0 for no effect and ±100 for the full control effect.

CCC(=O)N(c1ccccc1)C1(COC)CCN(CCc2cccs2)CC1
inactive: activity change, negative = cytotoxicity [1] -15.2% | activity, positive = activation [2] -0.031% | activity change ([3]; at 57.6 µM (top of the series)) 0.614% | activation ([4]; at 76.8 µM (top of the series)) 3.18% | activation ([5]; at 57.6 µM (top of the series)) -0.0375% | activation ([6]; at 66 µM (top of the series)) 2.69% | activation ([7]; at 66 µM (top of the series)) 0.971% | activity change, negative = cytotoxicity ([8]; at 66 µM (top of the series)) -17.6% | activity change, negative = cytotoxicity [9] 1.07% | activity change, negative = cytotoxicity ([10]; at 66 µM (top of the series)) 1.72% | activity, negative = inhibition ([11]; at 61.5 µM (top of the series)) 6.05% | activation ([12]; at 76.8 µM (top of the series)) -9.83% | activity change, negative = inhibition ([13]; at 92.4 µM (top of the series)) -11.3% | activation [14] -1.47% | activation ([15]; at 92.4 µM (top of the series)) 0.517% | activity change, negative = inhibition ([16]; at 92.4 µM (top of the series)) -12.6%

CN(CCCl)CCCl
inactive: activity change ([3]; at 26.4 µM (top of the series)) -0.654% | activity change ([3]; at 57.6 µM (top of the series)) -0.929% | activation ([4]; at 35.3 µM (top of the series)) -1.68% | activation ([4]; at 76.8 µM (top of the series)) -4.51% | activation ([5]; at 26.5 µM (top of the series)) -0.976% | activation ([5]; at 57.6 µM (top of the series)) -0.455% | activation ([6]; at 30.3 µM (top of the series)) 1.2% | activation ([6]; at 66 µM (top of the series)) 2.6% | activation ([7]; at 30.3 µM (top of the series)) 20.9% | activation ([7]; at 66 µM (top of the series)) 4.79% | activity change, negative = cytotoxicity ([8]; at 30.3 µM (top of the series)) 11.7% | activity change, negative = cytotoxicity ([8]; at 66 µM (top of the series)) -11.9% | activity change, negative = cytotoxicity [9] 15.4% [at 30.3 µM] | activity change, negative = cytotoxicity ([10]; at 30.3 µM (top of the series)) 4% | activity change, negative = cytotoxicity ([10]; at 66 µM (top of the series)) -7.56% | activity, negative = inhibition ([11]; at 28.5 µM (top of the series)) -14.5% | activity, negative = inhibition ([11]; at 61.5 µM (top of the series)) 56.3% | activation ([12]; at 35.6 µM (top of the series)) -0.479% | activation ([12]; at 76.8 µM (top of the series)) 13.6% | activation ([18]; at 42.5 µM (top of the series)) -0.412% | activation ([18]; at 92.4 µM (top of the series)) -1.33% | activity change, negative = inhibition ([13]; at 42.5 µM (top of the series)) -5.88% | activity change, negative = inhibition ([13]; at 92.4 µM (top of the series)) -7.51% | activation [14] 7.88% | activation ([15]; at 42.5 µM (top of the series)) 3.44% | activation ([15]; at 92.4 µM (top of the series)) -0.685% | activity change, negative = inhibition ([16]; at 42.5 µM (top of the series)) 8.82% | activity change, negative = inhibition ([16]; at 92.4 µM (top of the series)) 4.61%
40.7 µM (active) and inactive: Potency [17]

CCC(=O)N(c1ccccc1)C1(COC)CCN(CCn2nnn(CC)c2=O)CC1
inactive: activity change, negative = cytotoxicity [1] 3.02% | activity, positive = activation [2] -5.21% | activation ([4]; at 76.8 µM (top of the series)) 0.277% | activation ([5]; at 57.6 µM (top of the series)) -0.0022% | activation ([6]; at 66 µM (top of the series)) -3.27% | activation ([7]; at 66 µM (top of the series)) 2.56% | activity change, negative = cytotoxicity ([8]; at 66 µM (top of the series)) -0.674% | activity change, negative = cytotoxicity [9] -17.1% | activity change, negative = cytotoxicity ([10]; at 66 µM (top of the series)) -28.3% | Potency [17] | activity, negative = inhibition ([11]; at 61.5 µM (top of the series)) 20.9% | activation ([12]; at 76.8 µM (top of the series)) 0.398% | activation ([18]; at 92.4 µM (top of the series)) 0.246% | activity change, negative = inhibition [19] 4.53% | activity change, negative = inhibition ([13]; at 92.4 µM (top of the series)) 5.08% | activation [14] 4.63% | activation ([15]; at 92.4 µM (top of the series)) -3.56%

O=[N+]([O-])C(Cl)(Cl)Cl
inactive: activity change, negative = cytotoxicity [1] -2.06% | activity, positive = activation [2] -5.75% | activity change ([3]; at 57.6 µM (top of the series)) 0.53% | activation ([4]; at 76.8 µM (top of the series)) 0.0628% | activation ([5]; at 57.6 µM (top of the series)) -0.433% | activation ([6]; at 66 µM (top of the series)) 1.82% | activation ([7]; at 66 µM (top of the series)) 10.7% | activity change, negative = cytotoxicity ([8]; at 66 µM (top of the series)) 5.46% | activity change, negative = cytotoxicity [9] 0.615% | activity change, negative = cytotoxicity ([10]; at 66 µM (top of the series)) -4.05% | Potency [17] | activity, negative = inhibition ([11]; at 61.5 µM (top of the series)) -16.6% | activation ([18]; at 92.4 µM (top of the series)) 0.288% | activity change, negative = inhibition [19] -0.303% | activity change, negative = inhibition ([13]; at 92.4 µM (top of the series)) 0.591% | activation [14] 26.2% | activation ([15]; at 92.4 µM (top of the series)) -2.89% | activity change, negative = inhibition ([16]; at 92.4 µM (top of the series)) -7.29%
